The list shows a part of the results, in another mix than the full data. Activity calls are given as the source filed them. No stated cut-off is given here; in the data, active means inhibition above about 50%; inactive means the rest.
Test: inhibitors of TWEAK-Fn14 signaling, primary screen, luciferase reporter cells, uHTS (AID 1159606)
Conditions: TWEAK-stimulated Fn14 reporter cells, luciferase luminescence, 8 h; at 10 µM; stronger effect = higher value
In the case of `CP(=S)(Nn1cnnc1)Oc1ccccc1` (stereo not drawn), the inhibition is reported as inactive: 4.65%. In the case of `CP(=O)(Nc1ccccc1Br)Oc1ccccc1` (stereo not drawn), the inhibition is reported as inactive: -5.64%. For `COc1ccccc1OP(C)(=O)Nc1ccccc1` (stereo not drawn), the inhibition was inactive: 13.3%. With `CP(=O)(Oc1ccccc1)OC(c1ccccc1)C(F)(F)F` (stereo not drawn) the inhibition was inactive: 6.41%. For `CP(=O)(Nc1ccc(SC(F)(F)F)cc1)Oc1ccc(Cl)cc1` (stereo not drawn), the inhibition was inactive: -1.07%. In the case of `Cc1cccc(C)c1OP(C)(=O)Nc1ccc(SC(F)(F)F)cc1` (stereo not drawn), the inhibition is reported as inactive: 17.2%. With `Cc1ccc(Nc2c([N+](=O)[O-])cc([N+](=O)[O-])cc2[N+](=O)[O-])cc1` the inhibition was active: 56.5%. For `Cc1cc(C)cc(OP(C)(=O)Nc2ccc(SC(F)(F)F)cc2)c1` (stereo not drawn), the inhibition was inactive: 7.56%. For `CP(=O)(NC(=O)Nc1ccccc1)Oc1ccccc1` (stereo not drawn), the inhibition was inactive: 3.18%. With `CCc1ccc(OP(C)(=O)N2CCN(c3ccc([N+](=O)[O-])cc3)CC2)cc1` (stereo not drawn) the inhibition was inactive: 4.32%. For `O=[N+]([O-])c1cc([N+](=O)[O-])c(O)c([N+](=O)[O-])c1.c1ccc(Oc2ccncc2)cc1`, the inhibition was inactive: 14.5%. For `CCOC(=O)c1ccc(NP(C)(=O)Oc2ccc(OC)cc2)cc1` (stereo not drawn), the inhibition was inactive: 7.28%. For `CCOP(C)(=S)SCC(=O)NC(C)C(=O)O` (stereo not drawn), the inhibition was inactive: 4.37%. For `CP(=O)(Nc1ccccn1)Oc1ccc(Cl)cc1` (stereo not drawn), the inhibition was inactive: -11.7%. With `CCN(CC)CCCOC(=O)C(O)(c1ccccc1)c1ccccc1` the inhibition was inactive: 11.9%. In the case of `COc1ccccc1-c1ccccn1.O=[N+]([O-])c1cc([N+](=O)[O-])c(O)c([N+](=O)[O-])c1`, the inhibition is reported as inactive: -7.86%. For `O=[N+]([O-])c1cc([N+](=O)[O-])c(Nc2cccnc2)c([N+](=O)[O-])c1`, the inhibition was inactive: 25.3%. For `O=[N+]([O-])c1ccc2c(c1)C=Nc1ccccc1O2`, the inhibition was inactive: 20.8%. In the case of `Cc1cccc(C)c1OP(C)(N)=O` (stereo not drawn), the inhibition is reported as inactive: -1.89%. In the case of `CC(C)(C)c1ccc(OP(C)(=O)Nc2ccc(SC(F)(F)F)cc2)cc1` (stereo not drawn), the inhibition is reported as inactive: -4.39%. In the case of `Cc1ccc(NP(C)(=O)Oc2ccccc2)c(C)c1` (stereo not drawn), the inhibition is reported as inactive: 4.08%. For `COc1ccccc1OP(C)(=O)Nc1ccc(C)cc1` (stereo not drawn), the inhibition was inactive: 21.8%. In the case of `CCOC(=O)c1ccc(NP(C)(=O)Oc2ccccc2)cc1` (stereo not drawn), the inhibition is reported as inactive: 6.68%. In the case of `Cc1cc(C)cc(OP(C)(N)=O)c1` (stereo not drawn), the inhibition is reported as inactive: 6.03%. For `COc1ccc(OP(C)(=O)Nc2cccc(F)c2)cc1` (stereo not drawn), the inhibition was inactive: 6.09%. In the case of `COc1ccccc1OP(C)(=O)Nc1cc(Cl)ccc1C` (stereo not drawn), the inhibition is reported as inactive: -1.62%. For `O=C(O)c1cccc(Nc2c([N+](=O)[O-])cc([N+](=O)[O-])cc2[N+](=O)[O-])c1`, the inhibition was inactive: -1.74%. For `CC1=NCCc2c1[nH]c1ccccc21.O=[N+]([O-])c1cc([N+](=O)[O-])c(O)c([N+](=O)[O-])c1`, the inhibition was inactive: -2.21%. In the case of `COc1ccccc1OP(C)(=O)Nc1cccc(Br)c1` (stereo not drawn), the inhibition is reported as inactive: 11.4%. In the case of `CCOC(=O)c1ccc(NP(C)(=O)Oc2cc(C)cc(C)c2)cc1` (stereo not drawn), the inhibition is reported as inactive: 16.2%. For `Cc1cc(C)cc(OP(C)(=O)Nc2ccc(C)cc2C)c1` (stereo not drawn), the inhibition was inactive: -3.01%. With `Cc1ccc(C)c(NP(C)(=O)Oc2ccccc2)c1` (stereo not drawn) the inhibition was inactive: -16.7%. With `Cc1cc(C)cc(OP(C)(=O)Nc2ccccn2)c1` (stereo not drawn) the inhibition was inactive: 3.34%. In the case of `CP(=O)(Nc1cccc(Br)c1)Oc1ccccc1` (stereo not drawn), the inhibition is reported as inactive: -4.25%. For `O=[N+]([O-])c1cc([N+](=O)[O-])c(-n2nnc3ccccc32)c([N+](=O)[O-])c1`, the inhibition was inactive: 4.19%. With `CN(Cc1cccnc1)C(=O)COc1ccc(Cl)c(Cl)c1.O=[N+]([O-])c1cc([N+](=O)[O-])c(O)c([N+](=O)[O-])c1` the inhibition was inactive: -7.05%. In the case of `O=[N+]([O-])c1cc([N+](=O)[O-])c(-c2cnn(-c3ccccc3)c2)c([N+](=O)[O-])c1`, the inhibition is reported as inactive: 22.1%. With `Cc1nc2ccc3ccccc3c2s1.O=[N+]([O-])c1cc([N+](=O)[O-])c(O)c([N+](=O)[O-])c1` the inhibition was inactive: -8.21%. With `CCOC(=O)C(CC)C1=NC(C)(C)Cc2ccccc21.O=[N+]([O-])c1cc([N+](=O)[O-])c(O)c([N+](=O)[O-])c1` (stereo not drawn) the inhibition was inactive: -0.08%. In the case of `CC1=C2N=C(C=C3N=C(C(C)=C4[N-][C@@](C)([C@@H]5N=C1[C@](C)(CCC(=O)NC[C@@H](C)OP(=O)([O-])O[C@H]1[C@@H](O)[C@@H](n6cnc7cc(C)c(C)cc76)O[C@@H]1CO)[C@H]5CC(N)=O)[C@@](C)(CC(N)=O)[C@@H]4CCC(N)=O)[C@@](C)(CC(N)=O)[C@@H]3CCC(N)=O)C(C)(C)[C@@H]2CCC(N)=O.[C-]#N.[Co+3]`, the inhibition is reported as inactive: 30.7%. With `O=[N+]([O-])c1cc([N+](=O)[O-])c(Nc2nnnn2CCO)c([N+](=O)[O-])c1` the inhibition was inactive: 27.8%. In the case of `CN1CCCCC1COC(=O)C1(O)c2ccccc2CCc2ccccc21` (stereo not drawn), the inhibition is reported as inactive: -11.3%. For `COc1ccccc1OP(C)(=O)Nc1c(C)cccc1C` (stereo not drawn), the inhibition was inactive: 7.92%. For `COc1ccc(-c2ccccn2)cc1.O=[N+]([O-])c1cc([N+](=O)[O-])c(O)c([N+](=O)[O-])c1`, the inhibition was inactive: -11.6%. In the case of `CCCOc1ccc(NP(C)(=O)Oc2ccc(Cl)cc2)cc1` (stereo not drawn), the inhibition is reported as inactive: 0.96%. For `CP(=O)(Nc1ccc(SC(F)(F)F)cc1)Oc1ccccc1` (stereo not drawn), the inhibition was inactive: 5.57%. With `COc1ccc(OP(C)(=O)Nc2cccc(Br)c2)cc1` (stereo not drawn) the inhibition was inactive: 13.6%. For `CN(C)CCOC(=O)C(O)(c1ccccc1)C1CCCCC1` (stereo not drawn), the inhibition was inactive: -10.1%. For `COc1ccc(NP(C)(=O)Oc2ccccc2OC)cc1` (stereo not drawn), the inhibition was inactive: 0.7%. In the case of `O=[N+]([O-])c1ccc(OP2(=O)COCCO2)cc1` (stereo not drawn), the inhibition is reported as inactive: 18.2%. In the case of `O=[N+]([O-])c1cc([N+](=O)[O-])c(NCC2CCS(=O)(=O)C2)c([N+](=O)[O-])c1` (stereo not drawn), the inhibition is reported as inactive: 44.8%. With `Cc1cc(-c2cccc3ccccc23)c(C)cn1.O=[N+]([O-])c1cc([N+](=O)[O-])c(O)c([N+](=O)[O-])c1` the inhibition was inactive: 7.6%. In the case of `Cc1c(C(c2ccc3c(c2)OCO3)c2c(C)n(C)n(-c3ccccc3)c2=O)c(=O)n(-c2ccccc2)n1C.O=[N+]([O-])c1cc([N+](=O)[O-])c(O)c([N+](=O)[O-])c1`, the inhibition is reported as inactive: -4.76%.

From PubChem BioAssay AID1159606 (Sanford-Burnham Center for Chemical Genomics, 2016)
